Assay results published in US20230159537A1, “COMPOUND, PREPARATION METHOD THEREOF, AND USE THEREOF IN PREPARATION OF ANTI-CANCER DRUG” (TIANJIN JIKUN MEDICAL TECHNOLOGY CO., LTD., priority 2020, published 2023).
Entries after “also recorded” stand apart in the source; their conditions may differ.

Experiments:
[1] = tested on: FGFR2 and downstream signaling pathway in SNU-16 cells
[2] = tested on: FGFR1 and downstream signaling pathway in NCI-H1581 cells; test: Western blot of FGFR1 and downstream signaling protein phosphorylation in NCI-H1581 cells; assay type: cell-based, human; details: 12 h

Q: How did the “activation of downstream PLCγ, AKT, and ERK” value [1] turn out when COc1cc(OC)cc(-c2nn(CCCCCN3CCN(C(=O)/C=C/C(F)(F)F)CC3)c3ncnc(N)c23)c1 [Compound 36] was run?
A: inhibited the activation of downstream PLCγ, AKT, and ERK in a dose-dependent manner

Q: What about the “phosphorylation / activation of FGFR1 in NCI-H1581 cells” value ([2]; different concentrations) of the same molecule?
A: significantly inhibited the phosphorylation of FGFR1; also recorded: inhibits the activation of FGFR1 and a downstream signaling pathway thereof

Q: What about the “activation of downstream PLCγ, AKT, and ERK” value ([2]; NCI-H1581 cells) of the same molecule?
A: inhibited the activation of downstream PLCγ, AKT, and ERK in a dose-dependent manner
